Values of other authors as cited in patent publication US20240401031A1, “Platform Using iPSC-Derived Cardiomyocytes Carrying Gene Variants as Models of Cardiac Disease and Drug-Response” (SRI INTERNATIONAL, priority 2021, published 2024).

Conditions: source CredibleMeds

Ibogaine
Risk (Torsade de Pointes): (KR)
